Tests used:
[1] = Circular dichroism, relative content of secondary structure elements; type: physicochemical; design: key to α-Helix / β-Strands / β-Turns / Random: relative content as fraction, from CDSSTR deconvolution; settings: CDSSTR deconvolution
Protocol: Circular dichroism (CD) spectra in the far-UV region (190-260 nm) were collected on a Jasco J-715 spectropolarimeter using a 0.1 cm path-length cuvette. Temperature was kept at 25°C by a Peltier device. Peptide concentration was determined from the absorption of the aromatic residues at 280 nm.
Peptides solutions: Bim-BH3Y and Bim-BH3YA2Aib were suspended in water and potassium hydroxide was added up to complete solubilization. 072RB was dissolved in water. Concentration of stock solutions was about 0.1 mg/ml. For circular dichroism measurements, stock solutions were diluted in 10 mM potassium phosphate buffer, pH 7.
The relative content of secondary structure elements was calculated with the deconvolution program CDSSTR [31] (Table 2). […] 072RB has the highest helical content in the set examined here (0.30 α-helix percent).

The chains behind the UniProt entries cited, without tags or fusion partners. Residues count along the entry.
UniProt Q07817, 1-212 S2L: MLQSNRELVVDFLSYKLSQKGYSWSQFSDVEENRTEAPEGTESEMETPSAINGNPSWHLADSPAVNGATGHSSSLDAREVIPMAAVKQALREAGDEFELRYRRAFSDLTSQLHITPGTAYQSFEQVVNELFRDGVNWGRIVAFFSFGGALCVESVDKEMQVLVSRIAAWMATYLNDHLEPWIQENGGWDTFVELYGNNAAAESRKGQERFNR

[2] = Peptides stability in medium with 10% FBS or in 100% FBS (HPLC-MS); type: in vitro ADME; settings: RPMI 1640 medium with 10% fetal bovine serum (FBS), medium (RPMI 1640) with 10% FBS, 37°C, calculated by linear regression
Protocol: Compounds were added to the medium solution of serum 10% or 100% FBS at the final concentration of 32 µM. Several extraction mixtures were attempted: MeOH; MeOH with 0,1% trifluoroacetic acid (TFA); (H2O: MeOH) 1:1, 1:4, 4;1. A perchloric acid (PCA) protein precipitation protocol was also tried. […] In both cases ice-cold methanol was added to the peptide solution. The mixture was centrifuged and the resulting supernatant was then added with ice-cold methanol (alone or containing 0,1% TFA) at a 1:1 final ratio and this procedure was repeated twice. Before extraction peptides were incubated in 10% FBS or 100% FBS at 37°C and, at different incubation times (0', 6, 24 and 48 hours), a sample of 50 µl was collected to be analyzed by HPLC-MS.

Bcl-XL = target: T1, Bcl-XL (Homo sapiens, UniProt Q07817, S2L); experiment: Fluorescence anisotropy binding and competition binding assay
T1 construct: with the C-terminus truncated; His6; made in house; host or cells: Escherichia coli BL21 (pLys)
Protocol: Fluorescence Anisotropy was monitored with a Polarion Instrument (Tecan, Austria): excitation wavelength = 485 nm, emission wavelength = 535 nm. […] Anisotropy values were studied at a fixed concentration of fluoresceinated Bak BH3 molecule (2E-8 M), a fixed concentration of peptide inhibitors (2E-7 M) and increasing concentrations of Bel-XL (from 2E-8 M to 1E-6 M). Experiments were performed in 96-wells black non-binding plates (Corning), the experimental volume was always 200 µl / well. Reagents were mixed at room temperature and maintained at a constant temperature (30°C) during the measurements. Anisotropy measurements were performed at different times of incubation to assess the stability of the reactions. […]
For simple binding experiments we evaluated the Kd using a nonlinear regression analysis [NLIN SAS] to fit the Lundblad equation [38]. […]
We calculated the expected Anisotropy value solving a third degree equation obtained extending the simple binding equation to a competitive binding inhibition assay. […]
Point estimates of each equilibrium constant were evaluated using meta-analytical tools weighting each experimental result for its estimated variance. […]
Fluorescence Anisotropy (FA) is a quantitative technique to analyze the interaction of a smaller fluorescent molecule with a larger non fluorescent molecule. […]

[3] = relative content, 10 mM potassium phosphate buffer, pH 7, 25°C

## CC[C@H](C)[C@H](NC(=O)[C@H](CCCNC(=N)N)NC(=O)[C@H](CCCNC(=N)N)NC(=O)[C@H](CC(C)C)NC(=O)[C@H](CCC(=O)O)NC(=O)[C@H](CCC(N)=O)NC(=O)[C@H](C)NC(=O)[C@@H](NC(=O)[C@H](Cc1ccc(O)cc1)NC(=O)[C@@H](NC(=O)[C@H](CCC(=O)O)NC(=O)[C@@H]1CCCN1C(=O)[C@H](CCCNC(=N)N)NC(=O)[C@H](CCSC)NC(=O)[C@@H](N)CC(=O)O)[C@@H](C)CC)[C@@H](C)CC)C(=O)NCC(=O)N[C@@H](CC(=O)O)C(=O)N[C@@H](CCC(=O)O)C(=O)N[C@@H](Cc1ccccc1)C(=O)N[C@@H](CC(N)=O)C(=O)N[C@@H](C)C(=O)N[C@@H](Cc1ccc(O)cc1)C(N)=O [Bim-BH3 Y]
[1]
  relative content of helices: 0.03 α-helix percent
[1]; [3]
  Random: 0.59
  α-Helix: 0.03
  β-Strands: 0.22
  β-Turns: 0.14
[2]
  half-life at 32 µM: 49.5 h
Bcl-XL; competition binding assay: BakF-BH3 2E-8 M, competitor peptide 2E-7 M, Bcl-XL 2E-8 M to 1E-6 M, 45 min, 30°C, read-out: Weighted mean Kd
  Kd: 0.0292 µM
Bcl-XL; wild type versus W89Y mutant complex
  experimental ΔG° difference: 0.8 kcal/mol

Source: EP1985629A1, “Pro-apoptotic molecules and therapeutic uses thereof” (UNIVERSITA DEGLI STUDI DI GENOVA, priority 2007, dated 2008)
